# Data published in patent US10550168B2, “Composition for treating diabetes or diabesity comprising oxyntomodulin analog” (HANMI PHARM. CO., LTD., priority 2012, dated 2020).
# By UniProt entry, the sequences of proteins in these tests, tags left out. Residues count along the entry.
# UniProt P43220, 24-463: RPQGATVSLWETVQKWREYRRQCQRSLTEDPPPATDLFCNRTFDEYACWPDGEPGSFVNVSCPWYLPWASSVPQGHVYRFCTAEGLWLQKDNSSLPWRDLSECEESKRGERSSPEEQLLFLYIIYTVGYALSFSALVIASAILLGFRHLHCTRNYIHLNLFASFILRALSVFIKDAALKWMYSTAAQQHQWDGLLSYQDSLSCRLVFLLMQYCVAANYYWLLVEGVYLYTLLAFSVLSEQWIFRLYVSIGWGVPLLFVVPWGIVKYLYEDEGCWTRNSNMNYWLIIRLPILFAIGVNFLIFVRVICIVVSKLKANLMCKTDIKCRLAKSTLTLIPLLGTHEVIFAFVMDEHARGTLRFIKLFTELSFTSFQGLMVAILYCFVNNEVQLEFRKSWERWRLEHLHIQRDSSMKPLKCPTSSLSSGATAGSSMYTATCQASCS
# UniProt P47871, 26-477: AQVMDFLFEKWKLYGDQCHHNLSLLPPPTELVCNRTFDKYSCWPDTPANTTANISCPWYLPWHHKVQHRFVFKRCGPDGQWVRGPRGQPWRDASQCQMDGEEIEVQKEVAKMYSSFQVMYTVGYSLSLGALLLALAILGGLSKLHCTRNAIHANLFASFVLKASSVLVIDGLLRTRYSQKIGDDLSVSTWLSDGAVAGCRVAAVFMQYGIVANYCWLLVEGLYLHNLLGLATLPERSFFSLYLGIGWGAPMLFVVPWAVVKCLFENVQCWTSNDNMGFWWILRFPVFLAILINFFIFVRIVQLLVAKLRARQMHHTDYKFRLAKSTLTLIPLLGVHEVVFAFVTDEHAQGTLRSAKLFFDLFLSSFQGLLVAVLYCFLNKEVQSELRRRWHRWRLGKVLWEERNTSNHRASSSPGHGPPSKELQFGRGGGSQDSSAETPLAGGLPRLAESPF
# Tests used:
# human GLP-1 receptor = target: T1, human GLP-1 receptor (Homo sapiens, UniProt P43220); assay: cAMP response in CHO cells expressing human GLP-1 receptor (CHO/GLP-1R); assay type: cell-based
# T1 construct: Using a portion corresponding to the ORF (open reading frame) of cDNA; host or cells: CHO DG44
# Method: The PCR product was cloned into the known animal cell expression vector x0GC/dhfr, thereby constructing the recombinant vector x0GC/GLP-1R.
# (§1) The recombinant vector x0GC/GLP-1R was introduced into a CHO DG44 cell line, cultured in DMEM/F12 (10% FBS) medium, using lipofectamine (Invitrogene, USA), to obtain a transformant. The transformant was incubated in a selective medium containing 1 mg/mL G418 and 10 nM methotraxate, and monoclonal cell lines were selected therefrom.
# (§2) The cultured cells were washed with KRB buffer, suspended in 40 ml of 1 mM IBMX-containing KRB buffer, and then allowed to stand at room temperature for 5 minutes. […] Then, 20 ml of cell lysis buffer was added to lyse the cells, and the concentration of cAMP in each of the cell lysates was measured using a cAMP assay kit (Molecular Device, USA).
# human glucagon receptor = target: T2, human glucagon receptor (Homo sapiens, UniProt P47871); assay: cAMP response in CHO cells expressing human glucagon receptor (CHO/GCGR); assay type: cell-based
# T2 construct: Using a portion corresponding to the ORF (open reading frame) of cDNA; host or cells: CHO DG44
# Method: The PCR product was cloned into the known animal cell expression vector x0GC/dhfr, thereby constructing the recombinant vector x0GC/GCGR.
# as §1, with “x0GC/GCGR” for “x0GC/GLP-1R”
# as §2
Structure (SMILES),EC50 (human GLP-1 receptor) [nM],EC50 (human glucagon receptor) [nM]
CSCC[C@H](NC(=O)[C@H](CCC(N)=O)NC(=O)[C@H](CCCCN)NC(=O)[C@H](CO)NC(=O)[C@H](CC(C)C)NC(=O)[C@H](CC(=O)O)NC(=O)[C@H](CO)NC(=O)[C@@H](NC(=O)[C@H](Cc1ccccc1)NC(=O)[C@@H](NC(=O)CNC(=O)[C@H](CCC(=O)O)NC(=O)CNC(=O)[C@H](Cc1c[nH]cn1)NC(=O)CNC(=O)CNC(=O)CNC(=O)[C@H](CC(=O)O)NC(=O)[C@H](CC(C)C)NC(=O)[C@H](Cc1ccc(O)cc1)NC(=O)[C@H](CCCNC(=N)N)NC(=O)[C@H](CO)NC(=O)[C@H](Cc1ccc(O)cc1)NC(=O)[C@H](CC(=O)O)NC(=O)[C@H](CO)NC(=O)[C@@H](NC(=O)[C@H](Cc1ccccc1)NC(=O)[C@@H](NC(=O)CNC(=O)[C@H](CCC(N)=O)NC(=O)[C@H](CO)NC(=O)Cc1c[nH]cn1)[C@@H](C)O)[C@@H](C)O)[C@@H](C)O)[C@@H](C)O)C(=O)N[C@@H](CCC(=O)O)C(=O)N[C@@H](CCC(=O)O)C(=O)N[C@@H](CCC(=O)O)C(=O)N[C@@H](C)C(=O)N[C@H](C(=O)N[C@@H](CCCCN)C(=O)O)C(C)C [SEQ ID NO: 12],> 1000,> 1000
"CC[C@H](C)[C@H](NC(=O)[C@H](Cc1ccccc1)NC(=O)[C@H](CC(C)C)NC(=O)C(C)(CCC(=O)O)NC(=O)[C@@H](NC(=O)[C@H](C)NC(=O)[C@H](CCC(=O)O)NC(=O)C(C)(CCC(=O)O)NC(=O)[C@H](CC(=O)O)NC(=O)[C@H](CC(C)C)NC(=O)[C@H](Cc1ccc(O)cc1)NC(=O)[C@H](CCCNC(=N)N)NC(=O)[C@H](CO)NC(=O)[C@H](Cc1ccc(O)cc1)NC(=O)[C@H](CC(=O)O)NC(=O)[C@H](CO)NC(=O)[C@@H](NC(=O)[C@H](Cc1ccccc1)NC(=O)[C@@H](NC(=O)CNC(=O)[C@H](CCC(N)=O)NC(=O)[C@H](CO)NC(=O)Cc1c[nH]cn1)[C@@H](C)O)[C@@H](C)O)C(C)C)C(=O)N[C@@H](CCC(=O)O)C(=O)N[C@@H](Cc1c[nH]c2ccccc12)C(=O)N[C@@H](CC(C)C)C(=O)N[C@@H](CCSC)C(=O)N[C@@H](CC(N)=O)C(=O)N[C@H](C(=O)N[C@@H](CCCCN)C(=O)O)[C@@H](C)O (stereo partly shown) [SEQ ID NO: 13, CA-SQGTFTSDYSRYLDXEAVXLFIEWLMNTK]",> 1000,> 1000
